This passage reports Cures and ILS results from ChEMBL document CHEMBL1127067 (1993).

For test [1], the species on record is Mus musculus. Put plainly: Number of survivors after treating 12 mice (infected with B16 melanoma) for 60 days.
For test [2], the species on record is Mus musculus. The test is described as follows: Number of survivors after treating 42 mice (infected with P388 leukemia) for 30 days.
For test [3], the system named is Mus musculus. The test is described as follows: Antitumor activity against P388 leukemia in BDF1/CDF1 mice expressed as percentage increase in life span at optimum dose of 25 mg/kg.
In test [4] the test system is Mus musculus. The test is described as follows: Antitumor activity against B-16 melanoma in BDF1 mice expressed as percentage increase in life span at optimum dose of 25 mg/kg.
In test [5] the test system is Mus musculus. Put plainly: Antitumor activity against P388 leukemia in BDF1/CDF1 mice expressed as percentage increase in life span at optimum dose of 100 mg/kg.
The subject of test [6] is Mus musculus. The test is described as follows: Antitumor activity against B-16 melanoma in BDF1 mice expressed as percentage increase in life span at optimum dose of 12.5 mg/kg.
Test [7] concerns Mus musculus. The test is described as follows: Antitumor activity against P388 leukemia in BDF1/CDF1 mice expressed as percentage increase in life span at optimum dose of 50 mg/kg.
The subject of test [8] is Mus musculus. The test is described as follows: Antitumor activity against P388 leukemia in BDF1/CDF1 mice expressed as percentage increase in life span at optimum dose of 200 mg/kg.

The structures appear in SMILES notation.

What is called ILS is how much longer treated animals lived than controls. A higher ILS goes with much gain in survival. Take `CCOP(=O)(OCC)N1CCN=C1N/N=C/c1c2ccccc2c(/C=N/NC2=NCCN2)c2ccccc12`: the Cures in test [1] and in test [2] was 3 throughout. Besides, the ILS in test [3] and in test [4] was above 164% in each case.
As for `O=P(O)(O)N1CCN=C1N/N=C/c1c2ccccc2c(/C=N/NC2=NCCN2P(=O)(O)O)c2ccccc12`, the figures for the ILS in test [3] and in test [4] were 265% and 163%, respectively.
The molecule `CCOP(=O)(OCC)N1CCN=C1N/N=C/c1c2ccccc2c(/C=N/NC2=NCCN2P(=O)(OCC)OCC)c2ccccc12` returned an increase in life span (ILS) in test [5] of 20%.
As for `O=P(O)(O)N1CCN=C1N/N=C/c1c2ccccc2c(/C=N/NC2=NCCN2)c2ccccc12`, the Cures in test [1] was 3; in test [2], 4. In addition, the increase in lifespan (ILS) is 345% in test [3] and 120% in test [6].
Consider `CCN(/N=C/c1c2ccccc2c(/C=N/NC2=NCCN2P(=O)(O)O)c2ccccc12)C1=NCCN1`, for which the Cures in test [1] was found to be 3; in test [2], 2. Besides, the ILS in test [7] was found to be 132%; in test [6], 114%.
As to `O=P(Oc1ccccc1)(Oc1ccccc1)N1CCN=C1N/N=C/c1c2ccccc2c(/C=N/NC2=NCCN2P(=O)(Oc2ccccc2)Oc2ccccc2)c2ccccc12`, the ILS in test [8] amounted to 60%.
